Data published in patent publication US9555013B2, “Modulation of fibroblast activity” (The University of Leicester, priority 2008, dated 2017).

System: human neutrophils
Assay: Secretion of VEGF from neutrophils (ELISA)
Assay type: cell-based
Details: FIG. 15; after 48 hours; vs control
Description: Human dermal fibroblasts (FIGS. 9 and 15) or human neutrophils (VEGF only) (FIG. 15) were seeded into 6-well plates and grown to 60% confluence in FM. […] The supernatants were prepared and assayed using ELISA kits for TGF-β1, TGF-β2, 15 TGF-β3 and VEGF (R & D systems) following the Manufacturer's instructions.

SMILES: COc1ccc(CC(C)NCC(O)c2ccc(O)c(NC=O)c2)cc1 (stereo not shown) [formotorol]
- amount of VEGF secreted from human neutrophils: decrease
